Data: patent US4710564A, “Anthracycline compounds” (Microbial Chemistry Research Foundation, priority 1985, dated 1987)
≈ marks a conversion by molar mass, not a printed value. Like-named read-outs stand apart in the source and are kept apart here.

How the values were obtained:
P388 leukemia = test: Antitumor activity against P388 leukemia in mice, i.p. administration (T/C, therapeutic index); format: in vivo, CDF1 mice; conditions: maximum tolerated dose/dose for 130% T/C
[1] = tested on: Adriamycin-resistant P 388 leukemia cells (P 388/ADR); test: Cytotoxic activity against Adriamycin-resistant P 388 leukemia cells; format: cell-based; conditions: for IC50 P388/ADR: Adriamycin-resistant P388 cells, cell number on day 2; for R/S: IC50 P388/ADR over IC50 P388/S, 2880 min
P 388 leukemia [2] = conditions: i.v.; maximum tolerated dose/dose for 130% T/C
P 388 leukemia [3] = conditions: oral; maximum tolerated dose/dose for 130% T/C

SMILES	Therapeutic index (P388 leukemia)	IC50 P388/ADR [1]	R/S [1]	Therapeutic index (P 388 leukemia [2])	Therapeutic index (P 388 leukemia [3])
CCC1(O)Cc2c(O)c3c(c(O)c2C(OC2CC(N4CCOCC4)C(O)C(C)O2)C1)C(=O)c1c(O)cccc1C3=O (stereo not shown) [3'-deamino-3'-(4-morpholinyl)-R20X]	10.7	0.038 µg/mL (≈ 0.0667 µM)	1.15	1.6	11
CCC1(O)Cc2cc3c(c(O)c2C(OC2CC(N4CCOCC4)C(O)C(C)O2)C1)C(=O)c1c(O)cccc1C3=O (stereo not shown) [3'-deamino-3'-(4-morpholinyl)-R20Y5]	5.2	0.15 µg/mL (≈ 0.271 µM)	1.5	6.5	7.4
